# Screening data as filed in PubChem.
# GALK inhibitor – galactokinase (human) inhibition; P51570; 270,000 compounds, 0.007% hits; Purified GALK, Kinase-Glo residual ATP luminescence; Potency, µM (top dose mostly 57.5 µM), inactives show at the top dose activity change, negative = inhibition, actives largely listed as inhibitors; AID 1868; also: potency is read from the fitted curve at half-maximal effect; % is scaled to controls: 0 for no effect and ±100 for the full control effect
#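 Quantitative HTS: GALK 5 nM, ATP 35 uM, galactose 100 uM, 1 h room temperature, then luciferase-based ATP detection.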
# TrxR1 substrate – substrates of rat thioredoxin reductase 1 | purified TrxR1 substrate turnover, NADPH consumption readout | Potency, µM (doses to about 114 µM), inactives show top-dose activity change, negative = substrate turnover | 390,000 compounds, 0.01% hits; also: potency is read from the fitted curve at half-maximal effect; % is scaled to controls: 0 for no effect and ±100 for the full control effect; nearly all actives have a fitted effect of over 50% in size
#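 Rat TrxR1, dispensed at 90 nM, was prereduced with 400 uM NADPH (final) for 5 min at ~22 deg C, then incubated with compound 15 min before 400 uM selenite. A first-read NADPH fluorescence drop versus no-compound background flagged substrates.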
# PINK1 expr mod – modulators of PINK1 expression. AID 624263. Potency, µM (top dose mostly 76.6 µM), for the others: at the top dose activation (PINK1 increase), actives largely listed as activators. 410,000 compounds, 0.2% hits. PINK1 immunofluorescence, high-content cytometry, 24 h; active = well fitted activation curve with a large enough effect; inconclusive = small, poorly fitted or top-dose-only effect; cell line not stated here; also: potency is read from the fitted curve at half-maximal effect; % of control where 0% means no effect; nearly all actives have a fitted effect of over 65% in size
#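 A stable cell line was treated with compounds at 5 concentrations for 24 hours, with CCCP as control. PINK1 levels and mitochondrial localization were measured by immunofluorescence with mitochondrial, cell and nuclear markers after fixation, read by laser-scanning cytometry.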
# rTrxR1 inhibitor – rat TrxR1 inhibition | recombinant rTrxR1, NADPH fluorescence consumption, selenite substrate | Potency, µM (series often up to 114 µM), without a hit: top-dose activity change, negative = inhibition, most hits filed as inhibitors | 390,000 compounds, 1% hits; also: potency is read from the fitted curve at half-maximal effect; % is scaled to controls: 0 for no effect and ±100 for the full control effect; nearly all actives have a fitted effect of over 65% in size
#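 Rat TrxR1 (90 nM in the dispensed reagent) was pre-reduced with 400 uM NADPH for 5 min at room temperature, then incubated with compound for 15 min. After 400 uM selenite was added, NADPH fluorescence (Ex 340/Em 450 nm) was followed for 8 min.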
# miR-21 reporter – miR-21 reporter, rising signal | HeLa miR-21 FLuc reporter, luciferase, 48 h | Potency, µM (top dose mostly 38.3 µM), inactives show at the highest dose reporter change, positive = more light | 340,000 tested, under 10 active | AID 2288; active = well fitted rising curve with a large enough effect; inconclusive = small, poorly fitted or top-dose-only effect; inactive = no such curve, though single readings can be large or run the other way;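 note: % of control where 0% means no effect; miR-21 action dims this reporter so a rising signal means less miR-21 action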
#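 Luminescence from a firefly luciferase reporter carrying a miR-21 binding site downstream, stably expressed under a CMV promoter in HeLa cells that make miR-21 endogenously, reports miRNA modulation after 48 h compound exposure up to approximately 40uM final.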
# * = called active by the depositor; u = inconclusive; x = no result given; [ ] = another dose, or the depositor's remark. Only some compounds are listed: those with a hit (about 1.1% of all), similar ones and a draw of the others. Unless noted, calls follow the shape of the dose curve; as a rule, active = well fitted curve in the direction sought with a large enough effect; inconclusive = small, poorly fitted or top-dose-only effect, or another doubt; inactive = no such curve, though single readings can be large; an effect the other way counts as inactive or inconclusive.
# Field names: A = GALK inhibitor; B = TrxR1 substrate; C = PINK1 expr mod; D = rTrxR1 inhibitor; E = miR-21 reporter
1) CC(=O)Oc1ccccc1C(=O)C=Cc1cccc([N+](=O)[O-])c1
  A: x	B: -4%	C: -1%	D: 25µM*	E: x

2) CCOC(=O)C(=Cc1ccc(-c2ccsc2C(=O)OC)o1)C(=O)OCC
  A: -5%	B: 9%	C: -3%	D: -14%	E: 2%

3) CCOC(=O)/C(C#N)=C/c1ccc(-c2ccsc2C(=O)OC)o1
  A: 1%	B: 2%	C: 25µM*	D: -9%	E: -6%

4) COc1cccc2sc3cc(NCc4ccc(C)o4)ccc3c(=O)c12
  A: x	B: 11%	C: 7%	D: 79µM*	E: x

5) CCOC(=O)/C(=C\c1cn(C)c2ccccc12)[N+](=O)[O-]
  A: -4%	B: -13%	C: -1%	D: 18µM*	E: -2%

6) CCOC(=O)/C(C#N)=C\c1cn(C)c2ccccc12
  A: 3%	B: 3%	C: 3%	D: 17%[57.1 µM]	E: -16%

7) COc1ccccc1C1CN(Cc2c(C)nn(C)c2Cl)Cc2ccccc2O1 (stereo not drawn)
  A: x	B: x	C: -1%	D: x	E: x

8) CC(C)(C)C(=O)/C(=C/c1ccncc1)n1cncn1
  A: -1%	B: 11%	C: -3%	D: 18µM*	E: u

9) Cc1nn(C)c(C)c1/C=C(/C(=O)C(C)(C)C)n1cncn1
  A: 4%	B: -7%	C: 8%	D: -22%	E: 22%

10) COc1ccccc1NC(=S)N(C(C)C)C(C)c1ccccn1 (stereo not drawn)
  A: 1%	B: 1%[57.1 µM]	C: 3%	D: 13%[57.1 µM]	E: -1%

11) CC(C)N(C(=S)Nc1cccc(C(F)(F)F)c1)C(C)c1ccccn1 (stereo not drawn)
  A: -2%	B: -3%[57.1 µM]	C: 32µM*	D: -20%[57.1 µM]	E: 0%

12) COC(=O)c1c(C)oc(C)c1S(=O)(=O)N(C)C1CCCCC1
  A: -2%	B: 1%	C: 4%	D: 16µM*	E: 0%

13) CC(C)(C)n1ncc2c(=O)n(Cc3ccc(F)cc3)cnc21
  A: x	B: 1%	C: x	D: 28%[57.1 µM]	E: x

14) CN1CCC2(CC1)N=C(c1ccc(F)cc1)C(=S)N2C(=O)c1ccccc1
  A: -1%	B: 0%	C: u	D: 5µM*	E: -10%

15) CCN1CCC2(CC1)N=C(c1ccc(F)cc1)C(=S)N2C(=O)c1ccc(C(C)(C)C)cc1
  A: 4%	B: 4%[57.1 µM]	C: 0%	D: -23%[57.1 µM]	E: -28%

16) Cc1cc(C)cc(NC(=O)C2CCN(S(=O)(=O)c3c(C)noc3/C=C/c3ccco3)CC2)c1
  A: x	B: -1%	C: 4%	D: -4%	E: -4%

17) O=C(CSc1nnc(-c2ccncc2)n1Cc1ccccc1)NC1CCCCC1
  A: 5%	B: -1%	C: -2%	D: 18%	E: -1%

18) CC(=O)NCc1ccc(C(=O)CSc2nnc(-c3ccncc3)n2Cc2ccccc2)o1
  A: -1%	B: -1%	C: -4%	D: 16µM*	E: -1%

19) Cc1ccccc1Cn1c(=O)n(Cc2ccc(Cl)cc2)c(=O)c2cccnc21
  A: x	B: 93%	C: 0%	D: 192%	E: 0%

20) CC1CCN(CC[S-])CC1.O.O.[Cl][Pt]
  A: x	B: -7%	C: 0%	D: 1.4µM*	E: x

21) O=C(Cc1ccc2c(c1)OCO2)N1CCOc2ccc(CN3CCOCC3)cc2C1
  A: x	B: x	C: 0%	D: x	E: x

22) CN(Cc1ccccc1)C(=O)c1ccccc1C(=O)OCC(=O)N(Cc1ccccc1)C(C)(C)C
  A: x	B: -9%	C: 28%	D: 9%	E: x

23) CCOc1ccc(C(C)=O)cc1COC(=O)c1ccccc1C(=O)N(C)Cc1ccccc1
  A: x	B: -6%	C: -1%	D: 50µM*	E: x

24) O=C(/C=C/c1ccccc1)NC(NC(=S)Nc1ccc(Cl)cc1Cl)C(Cl)(Cl)Cl (stereo not drawn)
  A: -1%	B: -6%	C: 10µM*	D: u	E: u

25) CCOC(=O)N1CCN(C(=O)Nc2sc3nc4n(c(=O)c3c2C)CCC(C)CC4)CC1 (stereo not drawn)
  A: -1%	B: 6%	C: x	D: 28µM*	E: 3%

26) O=C(COC(=O)c1nc(Cl)c(Cl)c(Cl)c1Cl)NCc1ccccc1
  A: x	B: -8%	C: 2%	D: 45µM*	E: x

27) Cn1c(NC(=O)/C=C/c2ccco2)cc(=O)n(C)c1=O
  A: 1%	B: -12%	C: 1%	D: u	E: -9%

28) Cc1ccc(/C=C/C(=O)Nc2cc(=O)n(C)c(=O)n2C)o1
  A: -4%	B: -5%	C: 2%	D: 7.9µM*	E: -7%

29) COC(=O)c1ccc(Cl)cc1NC(=O)/C=C/c1ccc(C)o1
  A: 1%	B: 10%[57.1 µM]	C: 3%	D: -11%[57.1 µM]	E: 0%

30) Cc1ccc(/C=C/C(=O)Nc2ccc(Oc3ccccc3)cc2)o1
  A: 1%	B: 4%	C: 2%	D: u	E: 1%

31) Cc1ccc(NC(=O)/C=C/c2ccc(C)o2)c(C)c1
  A: x	B: -10%	C: 0%	D: 20µM*	E: -46%

32) Cc1cc(NS(=O)(=O)c2ccc(NC(=O)/C=C/c3ccc(C)o3)cc2)nc(C)n1
  A: -2%	B: -15%	C: -3%	D: 28µM*	E: 5%

33) CC(=O)c1ccc(NC(=O)/C=C/c2ccc(C)o2)cc1
  A: x	B: -9%	C: 1%	D: 22µM*	E: -34%

34) CCOC(=O)C1CCN(C(=O)Cn2c(-c3cccs3)cc3cc(Cl)ccc32)CC1
  A: x	B: 51%	C: 0%	D: 36%	E: 3%

35) CC[n+]1ccnc2ccccc21
  A: x	B: 5%	C: 0%	D: u	E: x

36) O=C(NCCO)c1cn(C2CCN(Cc3c(F)cccc3Cl)CC2)nn1
  A: x	B: x	C: 1%	D: x	E: x

37) CCc1c(C)sc2c1CCN(C(=O)Nc1ccccc1Cl)C2c1ccc(OC)cc1 (stereo not drawn)
  A: x	B: 2%[57.1 µM]	C: 0%	D: 15%[57.1 µM]	E: -3%

38) Cc1ccc(/C=C/C(=O)Nc2cccc3cccnc23)o1
  A: 0%	B: -7%	C: -1%	D: 50µM*	E: -25%

39) Cc1ccc(/C=C/C(=O)Nc2nnc(C)s2)o1
  A: -1%	B: -5%	C: 2%	D: 28µM*	E: -23%

40) CNC(=O)[C@@H]1C[C@@H](NCc2cccc(Oc3ccccc3)c2)CN1C(C)C
  A: x	B: x	C: 1%	D: x	E: x

# Quoted from above, compounds 6 to 9
# Field names: A = GALK inhibitor; B = TrxR1 substrate; C = PINK1 expr mod; D = rTrxR1 inhibitor; E = miR-21 reporter
6) CCOC(=O)/C(C#N)=C\c1cn(C)c2ccccc12
  A: 3%	B: 3%	C: 3%	D: 17%[57.1 µM]	E: -16%

7) COc1ccccc1C1CN(Cc2c(C)nn(C)c2Cl)Cc2ccccc2O1 (stereo not drawn)
  A: x	B: x	C: -1%	D: x	E: x

8) CC(C)(C)C(=O)/C(=C/c1ccncc1)n1cncn1
  A: -1%	B: 11%	C: -3%	D: 18µM*	E: u

9) Cc1nn(C)c(C)c1/C=C(/C(=O)C(C)(C)C)n1cncn1
  A: 4%	B: -7%	C: 8%	D: -22%	E: 22%

# (list continues)
# Field names: A = GALK inhibitor; B = TrxR1 substrate; C = PINK1 expr mod; D = rTrxR1 inhibitor; E = miR-21 reporter
41) COc1ccccc1CNC(=O)c1c2c(nc3ccccc13)C(=O)N(C1CCCCC1)C2
  A: x	B: 5%[57.1 µM]	C: 1%	D: 19%[57.1 µM]	E: -1%

42) CCOc1ccc(Oc2nc(NCC(C)C)nc(NC(C)(C)C)n2)nn1
  A: x	B: 1%	C: 2%	D: 1%	E: 0%

43) COC1=C(N)C(=O)c2nc(-c3nc(C(=O)O)c(C)c(-c4ccc(OC)c(OC)c4O)c3N)ccc2C1=O
  A: 8.9µM*	B: -17%	C: 0%	D: -4%	E: u

44) COc1ccc(C(=O)O)c(O)c1OC
  A: x	B: x	C: -1%	D: x	E: x

45) O=[N+]([O-])c1cc(Br)cc(C=Nc2ccc3c(c2)OCO3)c1O
  A: 5%	B: -14%	C: 0%	D: 45µM*	E: -7%

46) O=[N+]([O-])c1ccc(O)c(C=Nc2ccc3c(c2)OCO3)c1
  A: 0%	B: -3%	C: 1%	D: u	E: -28%

47) C=C1CCN(C(CC(C)C)C(=O)Nc2nc3ccc(Cl)cc3s2)S(=O)(=O)c2ccccc21 (stereo not drawn)
  A: x	B: -3%	C: x	D: 8%[57.1 µM]	E: x

48) N#C/C(=C\c1ccc(N2CCOCC2)cc1)c1ccccc1
  A: 2%	B: -10%	C: -1%	D: 0%	E: -41%

49) N#C/C(=C\c1ccc(N2CCOCC2)o1)c1ccccc1
  A: 5%	B: -3%	C: x	D: 3.5µM*	E: u

50) N#C/C(=C\c1cc([N+](=O)[O-])c(N2CCOCC2)cc1N1CCOCC1)c1nc2ccccc2[nH]1
  A: -2%	B: -17%	C: 2%	D: -16%	E: 6%

51) N#C/C(=C/c1ccc(N2CCOCC2)o1)c1ccc(Br)cc1
  A: -6%	B: -17%	C: u	D: 11µM*	E: 0%

52) N#C/C(=C/c1ccc(N2CCOCC2)o1)c1nc2ccccc2[nH]1
  A: 0%	B: 5%[57.1 µM]	C: 25µM*	D: -20%[57.1 µM]	E: -38%
